Tests used:
[1] = target: Mu-type opioid receptor (Homo sapiens) (UniProt P35372); assay: Displacement of [3H]-DAMGO from recombinant human MOR expressed in CHO cell membranes after 60 mins by liquid scintillation counting
Summary of the method: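 Competition binding on membranes from CHO cells stably transfected with recombinant human MOR. Affinity is reported as Ki. Values are mean ± SEM of at least three independent experiments.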

By UniProt entry, the sequences of proteins in these tests, tags left out.
UniProt P35372, whole entry: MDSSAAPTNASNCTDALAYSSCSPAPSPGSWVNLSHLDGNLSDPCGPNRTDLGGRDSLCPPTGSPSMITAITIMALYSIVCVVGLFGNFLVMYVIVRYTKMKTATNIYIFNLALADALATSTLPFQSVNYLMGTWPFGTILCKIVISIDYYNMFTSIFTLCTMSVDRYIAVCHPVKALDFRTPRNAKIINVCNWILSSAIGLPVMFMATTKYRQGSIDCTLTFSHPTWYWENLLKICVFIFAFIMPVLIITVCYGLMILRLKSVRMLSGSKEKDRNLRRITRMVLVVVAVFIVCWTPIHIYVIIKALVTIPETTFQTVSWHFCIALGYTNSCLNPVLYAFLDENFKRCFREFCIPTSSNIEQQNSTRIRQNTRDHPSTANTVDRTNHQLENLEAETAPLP

[2] = target: Mu-type opioid receptor (Homo sapiens) (UniProt P35372); assay: Agonist activity at recombinant human MOR expressed in CHO cell membranes after 60 mins by [35S]GTPgammaS binding assay; type: functional
Summary of the method: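 [35S]GTPγS binding stimulated by ligand in membranes from CHO cells stably expressing human MOR. Values are mean ± SEM of at least three independent experiments.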

With `CO[C@@]12CCC[C@]3(C)Oc4c(O)ccc5c4[C@@]31CCN(C)[C@@H]2C5` the inhibition [1] was “Dose-dependent effect” and the Activity [2] was “Dose-dependent effect”.
